The values that follow come from publication PMC5963757, “Expression, purification, and inhibition profile of dihydrofolate reductase from the filarial nematode Wuchereria bancrofti” (PLoS ONE, 2018).

This assay concerns the target BmDHFR (Brugia malayi, UniProt A0A4E9FIQ4). As to the kind of experiment: biochemical. As for the experimental part:
Compounds (-)-epicatechin, (-)-epicatechin gallate, and vitexin were tested as inhibitors of WbDHFR and BmDHFR. The compounds (-)-epicatechin and (-)-epicatechin gallate were synthesized as described previously. […] Disappearance of DHF and NADPH was observed by measuring absorbance at 340 nm to measure the DHFR activity in a SpectraMax M3 microplate reader. […] All experiments were completed in triplicate.
A linear equation was fitted to the data at each substrate concentration. […] The KI values for BmDHFR in Table 1 were obtained using the Cheng-Prusoff Equation [18]. […] Inhibitor structures are shown in supporting information (S2 Fig).

A word on the Ki: it is a dissociation constant, usually derived from enzyme kinetics or from competition with a known ligand. The low end stands for tighter binding, the high end for weaker binding. The IC50 is the concentration that gives 50% inhibition. A high value points to weaker potency. On to `CN(Cc1cnc2nc(N)nc(N)c2n1)c1ccc(C(=O)N[C@@H](CCC(=O)O)C(=O)O)cc1` [Methotrexate, methotrexate], for which the Ki is below 0.5 nM. Under “IC50 BmDHFR, pH 6.0, 100 μM NADPH, 50 μM DHF, 40 nM BmDHFR, average of triplicates ± S.D.”, this compound returned a half-inhibitory concentration (IC50) of 2.2 ± 1.4 nM. For the same compound, for the setting “IC50 against BmDHFR Average, average of three trials”, it took 2.21 nM to reach half-maximal inhibition (IC50). Under “IC50 against BmDHFR Trial 1, individual trial”, this compound yielded a half-inhibitory concentration (IC50) of 1.02 nM. Under “IC50 against BmDHFR Trial 2, individual trial”, this compound came in with an IC50 of 1.93 nM. Moreover, it took 3.68 nM to reach half-maximal inhibition (IC50 against BmDHFR Trial 3, individual trial) (IC50).
